# In patent US20080138280A1, “Composition and Methods For Inhibiting Cell Survival” (The Cleveland Clinic Foundation, priority 2003, published 2008):
# Tested on: NF-κB DNA binding activity
# Test: NF-κB DNA binding activity in melanoma cells after IFN-β
# Type: cell-based
# Text: This endogenous production further sensitized cells to administration of exogenous Apo2L/TRAIL. […] The anti-tumor effects of IFN-β and NO-Cbl are synergistic in vitro and in vivo. Treatment with NO-Cbl increased the expression of Apo2L/TRAIL, DR4 and DR5 mRNAs, and caspase-8 enzymatic activity, indicating activation of the extrinsic apoptotic pathway.
substance,measurement,value
"IFN-β: interferon-β, a cytokine",DNA binding activity of NF-κB,did not alter
